## Ab-14 heavy chain CDR variants: yeast mating affinities

Antigen: PDVDLGDISGINAS, a 14-residue peptide of the SARS-CoV-2 spike HR2 region.

Ab-14 is the parent antibody, in scFv form: VH, then three GGGGS repeats, then VL. The light chain is unchanged in all variants.
VH: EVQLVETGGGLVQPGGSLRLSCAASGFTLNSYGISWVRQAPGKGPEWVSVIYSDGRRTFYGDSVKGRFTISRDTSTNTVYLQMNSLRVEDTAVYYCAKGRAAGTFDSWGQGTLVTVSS
VL: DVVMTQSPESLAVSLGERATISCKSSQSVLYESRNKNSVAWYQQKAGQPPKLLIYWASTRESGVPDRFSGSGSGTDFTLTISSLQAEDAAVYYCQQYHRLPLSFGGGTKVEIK

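Designed CDR sequences, proposed from the first random library and measured here. Group labels follow the data file (Ctrl: baseline library sampled from a position-specific scoring matrix, with some repeated check sequences; Rand: our label for a block that the file lists under HC and that is probably the random mutants of the ten best first-round binders; En: ensemble of fine-tuned language models; GP: Gaussian process model; GPLM: also part of the Gaussian process libraries; HC: hill climbing; Gen: genetic algorithm; Gibbs: Gibbs sampling; a sequence that several methods proposed may carry one label only). Affinity was read by AlphaSeq, a pooled yeast mating assay with surface-displayed partners. Pairs that bind mate more often; barcode pairs of the diploids are counted by sequencing. A regression on co-assayed BCL2-family reference pairs converts the normalised counts of each replicate to an apparent Kd. Mating was done six times.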

Variants are written as CDR1, CDR2 and CDR3 of the heavy chain (limits as in the source). Parent: GFTLNSYGIS, VIYSDGRRTFYGDSVK, GRAAGTFDS. The Kd shown is the geometric mean over detected replicates; a lower Kd is a better binder. Where no diploid with the target was found in any replicate, the entry reads "not detected": below detection, most likely a poor binder, though not proof of it.

| # | Kd (apparent) | detected | CDR-H1 | CDR-H2 | CDR-H3 | group |
|---|---|---|---|---|---|---|
| 1 | 920 pM | 6 of 6 | GFDLNEYGIS | VIYADGQRTFYSDSVK | GENAGTFDV | En_Gen |
| 2 | 3.7 nM | 6 of 6 | GFSLNSYGIS | VIYSDGRRTFYDDNVK | GQLAGTFDS | GP_HC |
| 3 | not detected | 0 of 6 | GFELDEYGIS | VIYADGIRRQYADNVK | GYTDDAFDM | En_Gibbs |
| 4 | 160 pM | 6 of 6 | GFDLNEYGIS | VIYADGKRTAYADSVK | GGVAGTFDV | En_Gen |
| 5 | 34 nM | 5 of 6 | GFTLNDYGIS | VIYSDGRRTWYGDSVK | GRAAGTFDT | GP_HC |
| 6 | 600 pM | 6 of 6 | GFDLNEYGIS | VIYADGKRTAYADNVK | GETAGTFDL | En_Gen |
| 7 | 130 nM | 5 of 6 | MFDLNSYGIS | VIYSDGRRTFYSDSVK | GRTAGTFDS | GP_Gen |
| 8 | 680 pM | 6 of 6 | GFDLNEYGIS | VIYADGSRTAYADSVK | GNNAGTFDQ | En_Gen |
| 9 | 160 pM | 6 of 6 | GFNLEDYGIS | VIYADGRRTAYVDSVK | GKVAGTFDV | En_HC |
| 10 | 50 nM | 1 of 6 | LFDLNSYGIS | VIYSDGRRTFYIDSVK | GQEAGTFDS | GP_Gibbs |
| 11 | 27 nM | 5 of 6 | GFTLDSYGIS | VIYSDGRRTFYGDSVK | GKAAGTFDQ | GP_HC |
| 12 | 3.8 nM | 2 of 6 | GFTLMSYGIS | VIYSDGRRTFYHDSVK | GQLAGTFDS | GP_HC |
| 13 | 33 nM | 6 of 6 | GFTLNSYGIS | VIYSDGRRTFYSDSVK | GEAGGTFDS | GPLM_HC |
| 14 | 8.8 nM | 4 of 6 | GFDLNSYGIS | VIYSDGRRTFYGDMVK | GKTAGTFDS | GP_Gen |
| 15 | 480 pM | 6 of 6 | GFDLNEYGIS | VIYADGMRTAYIDSVK | GQNAGTFDL | En_Gen |
| 16 | 24 nM | 6 of 6 | GFSLNEYGIS | VIYSDGRRTFYCDSVK | GPAAGTFDS | GP_HC |
| 17 | 66 pM | 6 of 6 | GFDLNEYGIS | VIYADGRRTFYADSVK | GELAGTFSV | En_HC |
| 18 | not detected | 0 of 6 | GFDLNSYGIS | VIYSDGMRTFYADSVK | GRNAFTFDS | Ctrl |
| 19 | 950 pM | 6 of 6 | GFDLNEYGIS | VIYADGRRKFYADKVK | GENAGTFNV | En_HC |
| 20 | not detected | 0 of 6 | GFTLNSYGIS | VIYSDYRRTFMGDSVK | LRATKTFDS | Ctrl |
| 21 | not detected | 0 of 6 | GFDLNSYGIS | VIYSDGRRTFYADSVK | GRAAGTFNM | GP_HC |
| 22 | 850 pM | 6 of 6 | GFDLNSYGIS | VIYSDGRRTVYGDSVK | GRQAGTFDS | GP_Gen |
| 23 | 22 nM | 6 of 6 | GFTLNSYGIS | VIYSDGRRTFYDDNVK | GQTAGTFDS | GP_HC |
| 24 | 170 pM | 6 of 6 | GFDLNEYGIS | VIYADGMRTAYSDSVK | GTVAGTFDI | En_Gen |
| 25 | 1.4 nM | 6 of 6 | GFTLNSYGIS | VIYSDGRRTFYGDSVK | GVEAGTFDT | GP_Gen |
| 26 | 8.9 nM | 6 of 6 | GFHLNSYGIS | VIYSDGRRTFYADSVK | GKQAGTFDS | GP_Gen |
| 27 | 3.0 nM | 5 of 6 | GFDLNSYGIS | VIYSDGRRTFYHDAVK | GRTAGTFDS | GP_Gen |
| 28 | 48 nM | 5 of 6 | GFTLASYGIS | VIYSDGRRTAYGDQVK | GKAAGTFDS | Ctrl |
| 29 | 1.2 nM | 6 of 6 | GFTLNSYGIS | VIYADGQRTFYGDSVK | GRAAGTFDS | GPLM_Gen |
| 30 | 57 nM | 4 of 6 | GFILNSYGIS | VIYSDGRRTFYDDSVK | GQAAGTFDS | GP_HC |
| 31 | 19 nM | 2 of 6 | GFDLDEYGIS | VIYADGKRTAYVDSVK | GETAGTFDV | En_Gen |
| 32 | 640 pM | 6 of 6 | GFDLDEYGIS | VIYADGMRTFYADSVK | GETAGTFDQ | En_Gen |
| 33 | 660 pM | 6 of 6 | GFDLNEYGIS | VIYADGVRTFYADSVK | GEAAGTFDS | En_HC |
| 34 | 200 pM | 6 of 6 | GFDLNEYGIS | VIYADGRRTAYADSVK | GNLAGTFDQ | En_HC |
| 35 | 260 pM | 6 of 6 | GFDLNEYGIS | VIYADGKRTAYIDSVK | GGNAGTFDV | En_Gen |
| 36 | 300 pM | 6 of 6 | GFDLDEYGIS | VIYADGMRTFYADSVK | GTNAGTFDS | En_HC |
| 37 | 840 pM | 6 of 6 | GFDLNEYGIS | VIYADGRRTFYKDSVK | GTNGGTFDV | En_HC |
| 38 | 3.3 nM | 6 of 6 | GFTLNEYGIS | VIYSDGRRTFYMDSVK | GRTAGTFDS | GPLM_HC |
| 39 | not detected | 0 of 6 | GFTLNSYGIS | VIYSDGRRTGYDGSVK | GRWAGAFNS | Ctrl |
| 40 | 920 pM | 6 of 6 | GFDLEEYGIS | VIYADGMRTAYADSVK | GENAGTFDL | En_Gen |
| 41 | 350 pM | 6 of 6 | GFDLNEYGIS | VIYADGMRTFYADSVK | GNNAGTFDS | En_HC |
| 42 | not detected | 0 of 6 | GFTLNQNGIV | VIYSDGRRTFYSDSVK | YRAAGFTDS | Rand |
| 43 | 8.1 nM | 6 of 6 | GFGLNDYGIS | VIYSDGRRTFYHDSVK | GRQAGTFDS | GP_Gibbs |
| 44 | 6.4 nM | 6 of 6 | GFSLNEYGIS | VIYSDGRRTFYGDSVK | GRTAGTFNS | GP_Gen |
| 45 | 30 nM | 5 of 6 | GFSLNEYGIS | VIYSDGRRTFYGDSVK | GRQAGTFDT | GPLM_Gibbs |
| 46 | 5.9 nM | 6 of 6 | GFDLNSYGIS | VIYSDGRRTFYGDSVK | GQAAGTFDR | GPLM_Gibbs |
| 47 | 3.8 nM | 4 of 6 | GFDLNSYGIS | VIYSDGRRTFYGDAVK | GNAAGTFDS | GPLM_Gibbs |
| 48 | not detected | 0 of 6 | GFNIDEYGIS | VIYADGSRAVYTESVK | GHNGNRLVG | En_Gibbs |
| 49 | not detected | 0 of 6 | EFEIQDYGIS | VIYADGSRTAYAESVK | GNMGGTFST | En_Gibbs |
| 50 | 80 nM | 4 of 6 | GFTLNEYGIS | VIYSDGRRTFYQDSVK | GRFAGTFDN | GP_HC |
| 51 | 1.0 nM | 6 of 6 | GFDLNEYGIS | VIYADGRRTFYADSVK | GNVAGTFFV | En_HC |

The 4 strongest on average among those seen in every replicate, once more:

| CDR-H1 | CDR-H2 | CDR-H3 | group | Kd (apparent) | detected |
|---|---|---|---|---|---|
| GFDLNEYGIS | VIYADGRRTFYADSVK | GELAGTFSV | En_HC | 66 pM | 6 of 6 |
| GFDLNEYGIS | VIYADGKRTAYADSVK | GGVAGTFDV | En_Gen | 160 pM | 6 of 6 |
| GFNLEDYGIS | VIYADGRRTAYVDSVK | GKVAGTFDV | En_HC | 160 pM | 6 of 6 |
| GFDLNEYGIS | VIYADGMRTAYSDSVK | GTVAGTFDI | En_Gen | 170 pM | 6 of 6 |

A sequence measured in both rounds can read differently, since the two assays cover different ranges. Of ten entries with the parent sequence, four were seen in most replicates (averages 2.2 nM to 240 nM), three in one and three in none, so single entries are noisy. Empty control strains, which show no peptide, gave a signal in 1% of pairings with all heavy chain designs; the median was 120 nM and 95% of these signals were weaker than 7.0 nM. No background was subtracted. The authors' rule: three or more of the six replicates give a measured affinity, fewer mean a poor binder.

From the AlphaSeq antibody data of Li et al. 2023 (doi:10.1038/s41467-023-39022-2), copy in the FLAb collection.